Among the data in article PMC7529893, “Structural basis for substrate recognition and chemical inhibition of oncogenic MAGE ubiquitin ligases” (Nature Communications, 2020) are Papp A→B and Papp B→A values, retold here.

This data set deals with Caco-2 cells. In words: High throughput Caco-2 permeability. The following applies: 10 µmol/l, 2 h. For orientation: Passage across Caco-2 layers is used to estimate intestinal permeability.

SMILES strings stand for the structures.

As for `Cn1ccc2cc(CNCCCNc3ccnc4cc(C(F)(F)F)ccc34)ccc21`, the Papp A→B (read-out: Caco-2 permeability, A/B (nm/sec), apical to basolateral) is 21.4 ×10⁻⁶ cm/s. Further, where the note is “read-out: Caco-2 permeability, B/A (nm/sec), basolateral to apical”, the Papp B→A was found to be 12.3 ×10⁻⁶ cm/s.
